By pKi is commonly meant −log10 of the Ki, conventionally taken in molar units. The low end stands for a high Ki, the high end for a low Ki.

These results are taken from ChEMBL document CHEMBL1143615, “Synthesis and structure-activity relationship of fluoro analogues of 8-{2-[4-(4-methoxyphenyl)piperazin-1yl]ethyl}-8-azaspiro[4.5]decane-7,9-dione as selective alpha(1d)-adrenergic receptor antagonists” (J Med Chem, 2005).

For this test, the target named is T1, Alpha-1A adrenergic receptor (Homo sapiens, UniProt P35348).
T1 sequence (P35348 whole entry): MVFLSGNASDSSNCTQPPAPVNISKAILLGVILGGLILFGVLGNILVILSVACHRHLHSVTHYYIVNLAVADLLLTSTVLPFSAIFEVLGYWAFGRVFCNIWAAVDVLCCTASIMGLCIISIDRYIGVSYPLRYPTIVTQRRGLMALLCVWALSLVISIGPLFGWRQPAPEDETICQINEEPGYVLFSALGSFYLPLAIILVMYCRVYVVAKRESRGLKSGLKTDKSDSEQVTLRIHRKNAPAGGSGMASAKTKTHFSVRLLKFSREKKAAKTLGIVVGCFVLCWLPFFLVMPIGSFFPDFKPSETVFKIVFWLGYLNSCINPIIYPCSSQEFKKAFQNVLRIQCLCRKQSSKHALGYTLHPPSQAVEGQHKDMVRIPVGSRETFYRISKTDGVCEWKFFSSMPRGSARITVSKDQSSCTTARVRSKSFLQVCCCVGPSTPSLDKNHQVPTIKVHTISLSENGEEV
Nature of the test: Binding affinity for human Alpha-1A adrenergic receptor.

pKi: −log10 of the molar value.

`COc1ccccc1N1CCN(CCN2C(=O)CC3(CCCC3)CC2=O)CC1` [BMY-7378]: the negative-log Ki (pKi) was 6.54.
